Laboratory results reported in patent US20150266957A1 (Regeneron, published 2015).

Assays:
human PROKR1 [1] = target: T1, human PROKR1 (human, UniProt Q8TCW9 1-393); test: cell-based or functional assay
T1 sequence: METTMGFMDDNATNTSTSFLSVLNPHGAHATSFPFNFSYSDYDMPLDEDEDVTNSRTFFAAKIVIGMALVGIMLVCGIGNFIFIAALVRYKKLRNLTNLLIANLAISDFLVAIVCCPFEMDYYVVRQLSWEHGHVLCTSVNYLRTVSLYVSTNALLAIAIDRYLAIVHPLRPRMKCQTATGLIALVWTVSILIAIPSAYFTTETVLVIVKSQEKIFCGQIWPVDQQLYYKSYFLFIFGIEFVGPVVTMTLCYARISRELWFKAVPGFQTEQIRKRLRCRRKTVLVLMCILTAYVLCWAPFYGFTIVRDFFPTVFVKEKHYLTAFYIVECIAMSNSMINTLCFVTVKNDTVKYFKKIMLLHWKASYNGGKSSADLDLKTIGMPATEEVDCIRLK

cynomolgus monkey PROKR1 = target: T2, cynomolgus monkey PROKR1 (cynomolgus monkey (Macaca fascicularis), UniProt G7PMD0 1-393); test: cell-based or functional assay
T2 sequence: T1 sequence with V22A, T31A, S40G, I82V, V135I, K210R, V246F, D348N, V350A

mouse PROKR1 = target: T3, mouse PROKR1 (mouse (Mus musculus), UniProt Q9JKL1 1-393); test: cell-based or functional assay
T3 sequence (looked up): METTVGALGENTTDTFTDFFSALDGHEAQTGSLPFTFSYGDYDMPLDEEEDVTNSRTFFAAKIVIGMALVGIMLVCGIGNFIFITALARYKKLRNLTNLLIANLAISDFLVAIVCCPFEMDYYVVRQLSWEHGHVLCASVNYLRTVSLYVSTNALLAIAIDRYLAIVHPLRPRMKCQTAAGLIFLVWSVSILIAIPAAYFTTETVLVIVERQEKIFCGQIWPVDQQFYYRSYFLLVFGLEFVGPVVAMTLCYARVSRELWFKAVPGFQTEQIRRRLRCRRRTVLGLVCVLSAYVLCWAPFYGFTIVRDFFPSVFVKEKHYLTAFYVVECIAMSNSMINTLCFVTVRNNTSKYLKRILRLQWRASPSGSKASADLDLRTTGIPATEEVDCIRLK

rat PROKR1 = target: T4, rat PROKR1 (rat (Rattus norvegicus), UniProt Q8R416 1-393); test: cell-based or functional assay
T4 sequence (looked up): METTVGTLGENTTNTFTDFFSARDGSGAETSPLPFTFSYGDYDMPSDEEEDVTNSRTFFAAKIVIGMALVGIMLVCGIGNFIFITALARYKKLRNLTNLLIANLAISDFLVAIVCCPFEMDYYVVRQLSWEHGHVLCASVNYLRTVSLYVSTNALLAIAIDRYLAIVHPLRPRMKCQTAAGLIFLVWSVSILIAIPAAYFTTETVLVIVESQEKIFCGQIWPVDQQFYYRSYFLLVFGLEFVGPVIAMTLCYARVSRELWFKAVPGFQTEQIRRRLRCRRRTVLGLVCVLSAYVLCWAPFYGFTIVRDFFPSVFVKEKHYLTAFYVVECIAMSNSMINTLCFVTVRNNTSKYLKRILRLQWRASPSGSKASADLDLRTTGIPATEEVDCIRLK

human PROKR1 [2] = target: T1, human PROKR1; test: cell-based or functional assay; remark: listed apart in the source
human PROKR1 (1-62)-hFc = target: T5, human PROKR1 (1-62)-hFc (human); test: SPR (Biacore 4000), 25 C, antibody captured, antigen injected at 25 and 100 nM
T5 construct: also called soluble human PROKR1 (N-terminal portion)
Experimental: (§1) Kinetic experiments were carried out using HBS-EP (10 mM HEPES, 150 mM NaCl, 3 mM EDTA, 0.05% Surfactant P20, pH 7.4) as both the running buffer and the sample buffer. Antigen-antibody association rates were measured by injecting 2 concentrations (25 and 100 nM) of both human PROKR1 (1-62)-hFc (SEQ ID NO:179) and human PROKR2(1-53)-hFc (SEQ ID NO:180) over the captured antibody surface. Antibody-antigen association was monitored for 90 seconds while dissociation was monitored for 360 seconds. Kinetic on-rate (kₐ) and off-rate (kd) constants were determined from the data using Scrubber software version 2.0 c. Binding dissociation equilibrium constants (KD) and dissociative half-lives (t 1/2) were calculated from the kinetic rate constants as: KD=kd/kₐ and t 1/2=ln(2)/kd.

human PROKR2(1-53)-hFc [3] = target: T6, human PROKR2(1-53)-hFc (human); test: as above
T6 construct: also called soluble human PROKR2 (N-terminal portion)
Experimental: as §1

human PROKR2(1-53)-hFc [4] = target: T6, human PROKR2(1-53)-hFc; test: SPR (Biacore 4000), 25 C, antibody captured
Experimental: as §1

human PROKR2 = target: T7, human PROKR2 (human, UniProt Q8NFJ6 1-384); test: flow cytometry, HEK293 cells expressing the target
T7 construct: Expressed on engineered HEK293 or CHO cells; also called hPROKR2; prokineticin receptor 2
T7 sequence: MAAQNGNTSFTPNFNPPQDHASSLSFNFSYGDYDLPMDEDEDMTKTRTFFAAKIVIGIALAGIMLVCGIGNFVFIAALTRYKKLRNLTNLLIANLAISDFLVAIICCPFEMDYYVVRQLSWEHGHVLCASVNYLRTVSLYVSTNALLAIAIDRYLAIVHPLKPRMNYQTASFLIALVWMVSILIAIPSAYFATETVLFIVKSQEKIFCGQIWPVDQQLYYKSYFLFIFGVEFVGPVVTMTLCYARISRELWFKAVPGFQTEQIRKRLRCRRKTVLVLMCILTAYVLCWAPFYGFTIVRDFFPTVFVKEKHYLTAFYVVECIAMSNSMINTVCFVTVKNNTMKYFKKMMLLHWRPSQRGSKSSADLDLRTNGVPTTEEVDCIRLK
Experimental: Anti-PROKR antibodies generated in accordance with Example 1 were tested for the ability to bind to human, mouse, and monkey PROKR1 and PROKR2. For these experiments, HEK293 cells were engineered to express: human PROKR1; human PROKR2; mouse PROKR1; mouse PROKR2; cynomolgus monkey PROKR1; or cynomolgus monkey PROKR2. Binding of anti-human PROKR antibodies to the PROKR-expressing cell lines was measured by flow cytometry.
Adherent cells were collected using 1 mM EDTA in PBS, then washed, and re-suspended in cold PBS containing 5% FBS. For the binding experiments, each anti-PROKR antibody was added to 250,000 cells in 500 μl of PBS with 5% FBS (final antibody concentration of 13 nM). After incubation for 20 minutes at room temperature, the cells were washed with PBS containing 5% FBS. A secondary antibody, recognizing either human (Jackson Immuno Research, #115-135-205) or mouse Fc (BD Pharmigen, #550826) and conjugated to allophycyanin, was then added to the cell mixture at a final concentration of 13.3 nM. After incubating for 20 minutes on ice, the cells were washed and resuspended in PBS containing 5% FBS and then sorted and analyzed on a FACSCalibur (BD Biosciences) flow cytometer to determine relative binding by the candidate antibodies. The cell samples containing secondary antibody alone were used as negative control for FACS gating. […] ND=not determined.

- Block (%), calcium flux, hPROKR1 + PK1 (1 nM hPK1) (human PROKR1 [1]): 101%
- Block (%), calcium flux, hPROKR1 + PK2 (1 nM hPK2) (human PROKR1 [1]): 32.9%
- IC50 (nM), inhibition of calcium flux, hPROKR1 + PK1 (1 nM hPK1) (human PROKR1 [1]): 13.1 nM
- IC50 (nM), inhibition of calcium flux, hPROKR1 + PK2 (1 nM hPK2) (human PROKR1 [1]): > 300 nM
- Block (%), calcium flux, MfPROKR1 + PK1 (5 nM hPK1) (cynomolgus monkey PROKR1): 93.9%
- Block (%), calcium flux, MfPROKR1 + PK2 (0.5 nM hPK2) (cynomolgus monkey PROKR1): 67.9%
- IC50 (nM), inhibition of calcium flux, MfPROKR1 + PK1 (5 nM hPK1) (cynomolgus monkey PROKR1): 31 nM
- IC50 (nM), inhibition of calcium flux, MfPROKR1 + PK2 (0.5 nM hPK2) (cynomolgus monkey PROKR1): > 300 nM
- Block (%), calcium flux, mPROKR1 + PK1 (1 nM hPK1) (mouse PROKR1): 0%
- Block (%), calcium flux, rPROKR1 + PK1 (1 nM hPK1) (rat PROKR1): 0%
- IC50 (nM), blocking of hPK1 induced calcium flux, CHO/hPROKR1 non-induced (40 nM hPK1) (human PROKR1 [2]): 3.8 nM
- IC50 (nM), blocking of hPK2 induced calcium flux, CHO/hPROKR1 non-induced (4 nM hPK2) (human PROKR1 [2]): 19.1 nM
- Kd (human PROKR1 (1-62)-hFc): 2.3 nM
- koff (human PROKR1 (1-62)-hFc): 0.000727 s⁻¹
- kon (human PROKR1 (1-62)-hFc): 317000 M⁻¹ s⁻¹
- t½ (human PROKR1 (1-62)-hFc): 16 min
- koff (human PROKR2(1-53)-hFc [3]): 0.0163 s⁻¹
- kon (human PROKR2(1-53)-hFc [3]): 763000 M⁻¹ s⁻¹
- t½ (human PROKR2(1-53)-hFc [3]): 1 min
B1: H4H6696P (antibody, human IgG4, V domains shown)
VH: EVQLVESGGGLVKPGGSLRLSCAASGFTFSNAWMTWVRQAPGKGLEWVGRIKIKTDGGTTDYAAPVKGRFTISRDDSKNTLYLQMNSLKTEDTAVYYCTTGHTSYWGQGTLVTVSS
VL: not shown

- Block (%), calcium flux, hPROKR1 + PK1 (20 nM hPK1) (human PROKR1 [1]): 24.7%
- IC50 (nM), inhibition of calcium flux, hPROKR1 + PK1 (20 nM hPK1) (human PROKR1 [1]): > 1000 nM
- binding result (human PROKR2): no binding
- Kd (human PROKR1 (1-62)-hFc): 2.92 nM
- koff (human PROKR1 (1-62)-hFc): 0.00159 s⁻¹
- kon (human PROKR1 (1-62)-hFc): 545000 M⁻¹ s⁻¹
- t½ (human PROKR1 (1-62)-hFc): 7 min
B2: H4H6690P (antibody, human IgG4, V domains shown)
VH: B1 VH with T35S, I53S, Y62H, S87T, T103S
VL: not shown
- binding result (human PROKR2(1-53)-hFc [4]): no binding (tested: 25 and 100 nM antigen injected)

Substitutions are numbered along the chain they refer to. One block for each binder: values may come before it.
